System: male Wistar rats
Experiment: Catalepsy test
Type: in vivo, rat
Details: oral treatment, minimum effective (cataleptic) dose

| SMILES | Catalepsy (MED, mg/kg) |
| --- | --- |
| Cc1cc2c(s1)Nc1ccccc1N=C2N1CCN(C)CC1 [Olanzapine, reference compound] | 40 mg/kg |
| Cc1nc2n(c(=O)c1CCN1CCC(c3noc4cc(F)ccc34)CC1)CCCC2 [Risperidone, reference compound] | 6.0 mg/kg |
